Reference: patent US20050208598A1 (priority 2004, published 2005)

Protein sequences, listed by entry. Tags and fused reporters are not part of them. Residues count along the entry.
UniProt P22629, 25-183, species assumed: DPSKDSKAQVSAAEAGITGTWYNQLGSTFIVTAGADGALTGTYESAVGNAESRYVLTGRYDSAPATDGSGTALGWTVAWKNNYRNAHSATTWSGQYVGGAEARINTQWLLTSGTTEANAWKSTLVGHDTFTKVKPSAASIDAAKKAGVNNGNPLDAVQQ

Target: streptavidin (Streptomyces avidinii, UniProt P22629)
Details: relative to avidin

O=C(O)c1ccccc1N=Nc1ccc(O)cc1 [HABA, 2-(4-hydroxyphenylazo)benzoic acid]
binding affinity for streptavidin, fold lower than for avidin: about 20 fold
